From PMC5193075 (The Journal of Pharmacology and Experimental Therapeutics, 2017)

System: cryopreserved human primary hepatocytes
Assay: Drug depletion
Conditions: pooled hepatocytes data; parentheses = relative standard error

## O=C(O)Cc1ccccc1Nc1c(Cl)cccc1Cl [Diclofenac, diclofenac]
  interwell variability in unbound intrinsic clearance (IWV): 23.6% (54.4%) CV%
